Among the targets are PTK2 (human) (UniProt Q05397); EPHA2 (human) (UniProt P29317); ABL2 (human) (UniProt P42684).
Common to all, as to experiment: radiometric filter-binding kinase assay, Kinase HotSpot
Common to all, as to settings: compound 0.5 µM; ATP 10 µM

Amino acid sequences for entries named in this document (tags omitted).
UniProt Q05397, whole entry, looked up: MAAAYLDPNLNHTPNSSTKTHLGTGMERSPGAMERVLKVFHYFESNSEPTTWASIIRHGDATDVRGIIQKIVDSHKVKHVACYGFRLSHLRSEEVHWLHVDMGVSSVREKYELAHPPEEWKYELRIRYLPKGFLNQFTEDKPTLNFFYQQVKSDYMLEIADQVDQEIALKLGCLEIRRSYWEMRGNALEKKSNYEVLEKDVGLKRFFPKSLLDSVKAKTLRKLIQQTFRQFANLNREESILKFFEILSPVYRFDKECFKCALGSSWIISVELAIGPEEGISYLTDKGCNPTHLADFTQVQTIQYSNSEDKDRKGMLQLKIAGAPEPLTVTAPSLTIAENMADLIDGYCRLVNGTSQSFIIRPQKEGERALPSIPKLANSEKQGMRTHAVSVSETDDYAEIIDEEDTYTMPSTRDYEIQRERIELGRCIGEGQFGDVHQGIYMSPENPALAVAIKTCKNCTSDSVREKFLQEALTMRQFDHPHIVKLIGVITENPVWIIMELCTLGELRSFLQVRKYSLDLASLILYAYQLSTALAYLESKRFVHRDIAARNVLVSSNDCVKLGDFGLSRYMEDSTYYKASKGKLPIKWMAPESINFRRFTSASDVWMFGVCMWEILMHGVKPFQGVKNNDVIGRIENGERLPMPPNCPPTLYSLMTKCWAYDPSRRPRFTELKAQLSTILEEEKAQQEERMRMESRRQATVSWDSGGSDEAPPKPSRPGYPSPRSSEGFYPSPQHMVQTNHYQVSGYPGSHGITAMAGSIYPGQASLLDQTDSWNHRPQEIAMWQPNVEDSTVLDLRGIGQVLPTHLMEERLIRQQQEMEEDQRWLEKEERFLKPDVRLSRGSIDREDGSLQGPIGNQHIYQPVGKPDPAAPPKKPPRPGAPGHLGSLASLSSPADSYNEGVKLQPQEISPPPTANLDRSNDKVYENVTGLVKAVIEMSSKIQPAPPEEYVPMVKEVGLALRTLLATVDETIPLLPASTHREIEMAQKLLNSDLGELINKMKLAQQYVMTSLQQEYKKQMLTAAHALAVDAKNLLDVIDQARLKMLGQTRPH
UniProt P29317, whole entry, looked up: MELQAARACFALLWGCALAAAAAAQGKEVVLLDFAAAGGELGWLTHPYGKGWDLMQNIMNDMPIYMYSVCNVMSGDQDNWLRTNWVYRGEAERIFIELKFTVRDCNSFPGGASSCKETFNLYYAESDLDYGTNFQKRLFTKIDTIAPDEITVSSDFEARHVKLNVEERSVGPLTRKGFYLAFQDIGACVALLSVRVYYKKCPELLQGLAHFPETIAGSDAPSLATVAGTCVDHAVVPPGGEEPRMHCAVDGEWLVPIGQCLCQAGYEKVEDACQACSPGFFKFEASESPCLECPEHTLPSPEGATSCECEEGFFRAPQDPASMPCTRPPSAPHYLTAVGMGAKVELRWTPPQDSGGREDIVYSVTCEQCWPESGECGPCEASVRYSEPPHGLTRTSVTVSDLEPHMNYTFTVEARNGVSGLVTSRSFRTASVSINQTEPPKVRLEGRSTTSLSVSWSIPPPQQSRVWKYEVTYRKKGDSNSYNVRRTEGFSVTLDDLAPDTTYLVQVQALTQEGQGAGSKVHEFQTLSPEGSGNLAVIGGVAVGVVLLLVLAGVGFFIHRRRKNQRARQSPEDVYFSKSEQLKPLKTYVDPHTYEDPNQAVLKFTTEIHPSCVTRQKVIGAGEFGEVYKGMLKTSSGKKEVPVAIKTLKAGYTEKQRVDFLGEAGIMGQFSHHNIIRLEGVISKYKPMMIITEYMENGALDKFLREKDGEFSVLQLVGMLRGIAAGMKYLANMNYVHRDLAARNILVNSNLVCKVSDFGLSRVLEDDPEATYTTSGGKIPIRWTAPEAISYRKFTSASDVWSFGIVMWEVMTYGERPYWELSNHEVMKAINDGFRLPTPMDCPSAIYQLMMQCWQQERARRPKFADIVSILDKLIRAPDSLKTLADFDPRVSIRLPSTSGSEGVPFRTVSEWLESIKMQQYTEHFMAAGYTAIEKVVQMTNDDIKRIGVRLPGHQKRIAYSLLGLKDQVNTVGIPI
UniProt P42684, whole entry, looked up: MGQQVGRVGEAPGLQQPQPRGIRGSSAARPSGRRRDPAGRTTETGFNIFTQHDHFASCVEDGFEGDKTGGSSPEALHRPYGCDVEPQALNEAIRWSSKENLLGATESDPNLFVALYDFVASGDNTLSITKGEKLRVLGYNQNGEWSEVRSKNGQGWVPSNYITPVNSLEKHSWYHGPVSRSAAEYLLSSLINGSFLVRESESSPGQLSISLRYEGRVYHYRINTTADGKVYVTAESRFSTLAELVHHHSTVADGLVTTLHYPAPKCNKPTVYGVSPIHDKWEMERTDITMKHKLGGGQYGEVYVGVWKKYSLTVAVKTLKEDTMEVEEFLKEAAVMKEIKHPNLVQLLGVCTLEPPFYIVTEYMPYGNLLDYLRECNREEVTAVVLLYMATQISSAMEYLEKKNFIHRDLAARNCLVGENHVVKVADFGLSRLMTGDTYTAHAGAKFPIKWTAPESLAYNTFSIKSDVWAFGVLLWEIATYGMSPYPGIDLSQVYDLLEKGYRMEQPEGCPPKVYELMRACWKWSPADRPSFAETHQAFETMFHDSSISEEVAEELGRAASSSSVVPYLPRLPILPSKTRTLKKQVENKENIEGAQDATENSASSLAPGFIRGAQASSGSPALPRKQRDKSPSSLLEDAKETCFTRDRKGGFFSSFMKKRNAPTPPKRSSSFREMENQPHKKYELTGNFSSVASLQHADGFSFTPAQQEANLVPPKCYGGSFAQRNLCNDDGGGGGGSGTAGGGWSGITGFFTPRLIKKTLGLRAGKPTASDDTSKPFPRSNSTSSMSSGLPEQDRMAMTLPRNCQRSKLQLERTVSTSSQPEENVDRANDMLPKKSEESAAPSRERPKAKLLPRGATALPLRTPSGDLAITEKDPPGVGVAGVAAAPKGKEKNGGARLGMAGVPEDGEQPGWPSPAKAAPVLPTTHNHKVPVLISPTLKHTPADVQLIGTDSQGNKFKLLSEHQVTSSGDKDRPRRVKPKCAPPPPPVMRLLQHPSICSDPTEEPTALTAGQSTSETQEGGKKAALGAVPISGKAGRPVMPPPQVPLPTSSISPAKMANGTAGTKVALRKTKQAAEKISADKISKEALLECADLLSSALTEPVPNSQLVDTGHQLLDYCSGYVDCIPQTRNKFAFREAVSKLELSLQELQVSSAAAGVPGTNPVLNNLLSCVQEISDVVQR

With `O=C1c2ccccc2-c2nc3nnnn3nc21`, the residual activity – broadly, the share of the control activity or signal that is left under treatment – at PTK2 (human) turned out to be 87%.
For the molecule `Cc1cncc2cccc(S(=O)(=O)N3CCCN(C(=O)CN)C[C@H]3C)c12`, the residual activity at EPHA2 (human) is 92%.
Turning to `CO[C@@H]1[C@H](N(C)C(=O)c2ccccc2)C[C@H]2O[C@]1(C)n1c3ccccc3c3c4c(c5c6ccccc6n2c5c31)C(=O)NC4`, the residual activity at ABL2 (human) came out at 76.3%.

(Values after the kinase profiling compilation of Christmann-Franck et al. (2016).)
